Consider 2 substances from patent publication US20150196637A1, “METHODS AND MEANS FOR THE PRODUCTION OF IG-LIKE MOLECULES” (published 2015).

Values joined by “and” are separate entries in the source; they are usually repeats but may differ in a detail not shown here. Equal entries are not always repeated.

Test [1] concerns the target IgG1 heavy chain with CH3 construct 69 (L351D, L368E) and common light chain (human) [IgG part: P01857].
The target of test [2] is IgG1 heavy chain with CH3 construct 2 (K392D, K409D) and common light chain (human) [IgG part: P01857].
Test [3] concerns the target IgG1 heavy chain with CH3 construct 68 (T366K, L351K) and common light chain (human) [IgG part: P01857].
Test [4] concerns the target IgG1 heavy chain with CH3 construct 69 (L351D, L368E) and common light chain (human) [IgG part: P01857]. This is another data set of the same source.

As to “IgG1 heavy chain with CH3 construct 68 (T366K, L351K) and common light chain (from UniProt P01857-1)”, in test [1], the % of the mixture (peak height) is 30% and 33%.
Take “IgG1 heavy chain with CH3 construct 69 (L351D, L368E) and common light chain (from UniProt P01857-1)”: the % of the mixture (peak height) in test [2] was found to be 3%. The % bispecific IgG in test [3] is > 90%. For the same substance, in test [4], the % of sample worked out at 2%.
